In patent US7671027B2, “Use of GnRH agonists to support the luteal phase during infertility treatment” (PregLem S.A., priority 2002, dated 2010):

Columns and labels:
[1] = system: patients suffering from unexplained infertility, mild to moderate endometrioisis or partner sperm alteration; assay: Dose finding study: luteal phase duration and pregnancy outcome after ovarian stimulation and IUI; type: in vivo
Excerpt: (§1) Patients suffering from unexplained infertility, or from infertility resulting from mild to moderate endometrioisis, or an infertility resulting from a mild or moderate alteration of their partner sperm, and whom have not conceived despite regular sexual intercourses during a period of one or two years, usually undergo medical assistance. The most often used treatment is ovarian stimulation coupled to an IUI (Hughes G. H. 1997, The effectiveness of ovulation induction and intra-uterine insemination in the treatment of persistent infertility: a meta-analysis. Hum Reprod. 12: 1865-1872).
(§2) A prospective, randomised, parallel groups dose finding study was conducted in this patient population. After obtaining written informed consent, patient eligibility was confirmed and on day 1 to 5 of their next menstruation, the patient took orally for 5 days, 25 mg/day of exemestane, an aromatase inhibitor.
(§3) The ovarian response to treatment was followed on a regular basis using transvaginal ultrasound and by measuring serum oestradiol levels, Typically, a first assessment was performed on day 6 of the stimulation. The number and the size of each follicle was recorded. […] For that purpose the dose of buserelin administered intra-nasally, was 200 μg.
(§4) Between 12 and 48 hours after triggering ovulation, the patient's partner provided a sperm sample, after 2 to 5 days of abstinence. Motile sperm cells were separated from seminal fluid, dead sperm cells, leucocytes, and cellular debris using a suitable method such as a “swim-up” or a Percol gradient. On that same day, the motile sperm cell suspension was used to perform an intra-uterine insemination with a catheter inserted into the uterine cavity via the cervix. The procedure may be repeated on the next day.
(§5) From that day and for a period of 14 days, the patient received either no additional treatment (Patients in the hCG control group) or buserelin 100 μg every day IN, or every two days or every three days. These buserelin administrations were self-administered by the patient.

[2] = system: patients who did not conceive; assay: Dose finding study: luteal phase serum oestradiol levels; type: in vivo, human
Excerpt: as §1, §2, §3, §4, §5

[3] = system: patients who did not conceive; assay: Dose finding study: luteal phase serum progesterone levels; type: in vivo, human; settings: hCG 5000 IU trigger, no luteal treatment
Excerpt: as §1, §2, §3, §4, §5

[4] = system: patients in ART treatments; settings: hCG luteal support; CI: 1.56-4.90; p<0.05; cited from earlier work

CCNC(=O)[C@@H]1CCCN1C(=O)[C@H](CCCNC(=N)N)NC(=O)[C@H](CC(C)C)NC(=O)[C@@H](COC(C)(C)C)NC(=O)[C@H](Cc1ccc(O)cc1)NC(=O)[C@H](CO)NC(=O)[C@H](Cc1c[nH]c2ccccc12)NC(=O)[C@H](Cc1cnc[nH]1)NC(=O)[C@@H]1CCC(=O)N1 [Buserelin, <Glu^1-His^2-Trp^3-Ser^4-Tyr^5-D-Ser(t-But)^6-Leu^7-Arg^8-Pro^9-EA (SEQ ID NO: 2)]
Luteal phase duration (mean ± SD) ([1]; buserelin 200 μg IN trigger, then 100 μg/2 days IN for 14 days, n=6): 14.8 ± 3.3 days
Luteal phase duration (mean ± SD) ([1]; buserelin 200 μg IN trigger, then 100 μg/3 days IN for 14 days, n=5): 14.8 ± 1.7 days
Luteal phase serum oestradiol level (mean ± SD) ([2]; Day 1, buserelin 100 μg/day IN): 213 ± 133 pg/mL

hCG: human chorionic gonadotropin, a naturally occurring agonist of LH; control group, 5000 IU injection
Luteal phase serum progesterone level (mean ± SD) ([3]; Day 0): 0.5 ± 0.3 ng/mL
Luteal phase serum progesterone level (mean ± SD) ([3]; Day 1): 1.1 ± 0.6 ng/mL
Luteal phase serum progesterone level (mean ± SD) ([3]; Day 4): 6.0 ± 4.7 ng/mL
Luteal phase serum progesterone level (mean ± SD) ([3]; Day 7): 12.3 ± 5.4 ng/mL
Luteal phase serum progesterone level (mean ± SD) ([3]; Day 9): 13.1 ± 3.5 ng/mL
Luteal phase serum progesterone level (mean ± SD) ([3]; Day 11): 9.7 ± 2.8 ng/mL
Luteal phase serum progesterone level (mean ± SD) ([3]; Day 14): 3.3 ± 1.7 ng/mL
Luteal phase duration (mean ± SD) ([1]; hCG 5000 IU one injection to trigger ovulation, no additional luteal treatment (control group), n=5): 14.8 ± 1.1 days
Positive pregnancy test ([1]; hCG 5000 IU trigger, no luteal treatment, patients positive/total, day 14 of luteal phase): 0/5
Clinical pregnancy ([1]; hCG 5000 IU trigger, no luteal treatment, patients/total): 0/5
odds to obtain a pregnancy compared to no luteal support [4]: 2.72
Luteal phase serum oestradiol level (mean ± SD) ([2]; Day 0, hCG 5000 IU trigger, no luteal treatment): 227 ± 74 pg/mL
Luteal phase serum oestradiol level (mean ± SD) ([2]; Day 1, hCG 5000 IU trigger, no luteal treatment): 189 ± 65 pg/mL
Luteal phase serum oestradiol level (mean ± SD) ([2]; Day 4, hCG 5000 IU trigger, no luteal treatment): 114 ± 35 pg/mL
Luteal phase serum oestradiol level (mean ± SD) ([2]; Day 7, hCG 5000 IU trigger, no luteal treatment): 166 ± 37 pg/mL
Luteal phase serum oestradiol level (mean ± SD) ([2]; Day 9, hCG 5000 IU trigger, no luteal treatment): 213 ± 41 pg/mL
Luteal phase serum oestradiol level (mean ± SD) ([2]; Day 11, hCG 5000 IU trigger, no luteal treatment): 190 ± 59 pg/mL
Luteal phase serum oestradiol level (mean ± SD) ([2]; Day 14, hCG 5000 IU trigger, no luteal treatment): 100 ± 52 pg/mL
